This note sets out measurements from publication PMC4176424, “Thiolation-enhanced substrate recognition by D-alanyl carrier protein ligase DltA from Bacillus cereus” (F1000Research, 2014).

Usually kcat stands for the number of substrate molecules converted per active site and unit of time at saturation. By kcat/Km is commonly meant the turnover number divided by the Michaelis constant.

This data set has as its system Nc1ncnc2c1ncn2[C@@H]1O[C@H](COP(=O)(O)OP(=O)(O)OP(=O)(O)O)[C@@H](O)[C@H]1O. Description: purified protein. Particulars: 5 mM D-alanine, no CoA, 10 mM MgCl2, 0.1 M KCl, pH 7.2.

On to “BcDltA (D-alanyl carrier protein ligase DltA) (Bacillus cereus ATCC 14579)”, for which the Km is listed as 0.46 ± 0.05 × 10^-3 M, the kcat was 0.0243 s⁻¹ and the kcat/Km was found to be 53.3 M⁻¹ s⁻¹.
